pKi: −log10 of the molar value.
Assays:
[1] = target: T1, MOR (Homo sapiens, UniProt P35372); experiment: Irreversible binding: 3H-Diprenorphine binding after compound washed away 5 times
[2] = target: T1, MOR
[3] = target: T1, MOR; experiment: G protein recruitment functional assay; settings: FIG. 2B
[4] = tested on: C57BL/6J mice; experiment: CLAMS: fentanyl-induced respiratory depression and ambulation; settings: s.c.
[5] = target: T1, MOR; experiment: Arrestin recruitment functional assay; settings: FIG. 2C
[6] = 30 mg/kg, 2 hour pretreatment, listed as TJ-3-345

Amino acid sequences for entries named in this document (tags omitted).
UniProt P35372, whole entry: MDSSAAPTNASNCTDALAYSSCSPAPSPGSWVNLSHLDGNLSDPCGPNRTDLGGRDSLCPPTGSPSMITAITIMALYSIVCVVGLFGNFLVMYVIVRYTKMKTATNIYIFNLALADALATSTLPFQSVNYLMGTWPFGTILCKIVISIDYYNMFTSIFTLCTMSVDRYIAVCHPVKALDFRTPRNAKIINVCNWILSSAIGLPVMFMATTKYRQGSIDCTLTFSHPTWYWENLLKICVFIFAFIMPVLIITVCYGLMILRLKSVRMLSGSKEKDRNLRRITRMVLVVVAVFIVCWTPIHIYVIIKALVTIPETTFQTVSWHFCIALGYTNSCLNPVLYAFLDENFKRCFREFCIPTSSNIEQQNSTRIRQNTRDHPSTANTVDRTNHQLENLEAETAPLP

CO[C@]12CC[C@@]3(C[C@@H]1C(C)(C)O)[C@H]1Cc4ccc(O)c5c4[C@@]3(CCN1CC1CC1)[C@H]2O5
irreversible MOR attachment / inhibition (in words) ([1]; in vitro, blocks binding of other ligands after washing 5 times): not

C=CCN1CCC23c4c5ccc(O)c4OC2C(N(C)CCS(=O)(=O)F)CCC3(O)C1C5 (racemic) [TJ-345]
pKi [2]: 7.82 | duration of nearly full blockade of radioligand 3H-Diprenorphine binding ([1]; after compound was washed away 5 times (FIG. 3)): > 48 h | partial agonism, G protein recruitment [3]: < 10 % Emax | fentanyl-induced hyperlocomotion ([4]; 30 mg/kg, 2 hour pretreatment): significantly reverses | fentanyl-induced hyperlocomotion [4, 6]: significantly reversed | fentanyl-induced respiratory depression [4, 6]: significantly reversed | arrestin recruitment activity [5]: without any detectable

C=CCN1CC[C@]23c4c5ccc(O)c4O[C@H]2[C@H](N(C)CCS(=O)(=O)F)CC[C@@]3(O)C1C5 [TJ-171]
fentanyl-induced respiratory depression and ambulation ([4]; 30 mg/kg, pretreatment of 2 h): ameliorated | fentanyl-induced respiratory depression and ambulation ([4]; 30 mg/kg, pretreatment of 24 h): ameliorated | reversal of fentanyl-induced hyperlocomotion ([4]; administered at 21 min after fentanyl, 30 or 45 mg/kg): dose-dependently reversed

From patent US12643907B2 (priority 2020, dated 2026)
